The assay has as its system blood glucose concentration. The assay is described as follows: Blood glucose lowering after single oral administration, fasting metabolically healthy guinea pigs. Particulars: Cavia porcellus, Table III column A, guinea pig p.o., 5 hours, vs control group, read-out: ED50 (25%): dose which effects a lowering of the blood glucose concentration by at least 25% in 50% of the animals. The class given is in vivo, guinea pigs (young cross-bred male).

SMILES strings stand for the structures. A value given as a limit tells only on which side of the number the result lay.

For the compound `CCOC(=O)C1(CCCc2ccc(Cl)cc2)CO1` (stereo not shown) [Serial No. 3, 2-[3-(4-Chlorophenyl)propyl]oxirane-2-carboxylic acid ethyl ester], the ED50 was 22 mg/kg.

As to `CCOC(=O)C1(CCCc2cccc(C(F)(F)F)c2)CO1` (stereo not shown) [Serial No. 5, 2-[3-(3-Trifluoromethylphenyl)propyl]oxirane-2-carboxylic acid ethyl ester], the ED50 is less than 24 mg/kg.

`CCOC(=O)C1(CCCCCc2ccccc2)CO1` (stereo not shown) [Serial No. 7, 2-(5-Phenylpentyl)oxirane-2-carboxylic acid ethyl ester]: the ED50 was 21 mg/kg.

As for `CCOC(=O)C1(CCCCCc2ccc(Cl)cc2)CO1` (stereo not shown) [Serial No. 9, 2-[5-(4-Chlorophenyl)pentyl]oxirane-2-carboxylic acid ethyl ester], the ED50 was less than 24 mg/kg.

The record behind these values is patent US4324796A, “Substituted oxiranecarboxylic acids, their use and medicaments containing them” (BYK Gulden Lomberg Chemische Fabrik Gesellschaft mit …, priority 1979, dated 1982).
